Values quoted from earlier work, collected in patent US20070135390A1, “Phosphate derivatives” (priority 2003, published 2007).

Conditions: printed as in vitro use; phosphate group is slow to hydrolyse

## Phenol, 2,6-bis(1-methylethyl)-, dihydrogen phosphate (9CI) [propofol phosphate]
  release of the parent drug: does not release the parent drug
